Tested on: white clover (Trifolium repens) seedlings
Test: Primary root length of white clover seedlings under salt stress (Example 3)
Format: in vivo
Conditions: porphyrin 0.01% v/v, 7 days after germination, mean ± standard error
Protocol: In this example, the effect of porphyrin compounds on the sensitivity to salt stress of seedlings was evaluated. […] For exposure to salt, the water was adjusted to contain 100 mM NaCl. […] Salt stress tolerance was measured by determining the reduction of primary root length by analysis of pictures with the Image J™ software. Root lengths (mm) were measured 7 days after the germination. The following Table 3 summarizes the results.

zinc tetraphenylporphyrin
Root length (mm) (0 mM NaCl): 0.97 ± 0.06 mm
Root length (mm) (100 mM NaCl): 0.92 ± 0.02 mm

Reference: patent US20210352889A1, “MACROCYCLIC TETRAPYRROLE COMPOUNDS, COMPOSITIONS AND METHODS FOR INCREASING ABIOTIC STRESS RESISTANCE IN PLANTS” (SUNCOR ENERGY INC., priority 2018, published 2021)
